Measured values as given in US7572786B2, “Substituted 1-piperidin-3-yl-4-piperidin-4-yl-piperazine derivatives and their use as neurokinin antagonists” (Janssen Pharmaceutica, N.V., priority 2002, dated 2009).

Sequences of proteins named here, by UniProt entry; tags and fusion partners are left off.
UniProt P25103, whole entry: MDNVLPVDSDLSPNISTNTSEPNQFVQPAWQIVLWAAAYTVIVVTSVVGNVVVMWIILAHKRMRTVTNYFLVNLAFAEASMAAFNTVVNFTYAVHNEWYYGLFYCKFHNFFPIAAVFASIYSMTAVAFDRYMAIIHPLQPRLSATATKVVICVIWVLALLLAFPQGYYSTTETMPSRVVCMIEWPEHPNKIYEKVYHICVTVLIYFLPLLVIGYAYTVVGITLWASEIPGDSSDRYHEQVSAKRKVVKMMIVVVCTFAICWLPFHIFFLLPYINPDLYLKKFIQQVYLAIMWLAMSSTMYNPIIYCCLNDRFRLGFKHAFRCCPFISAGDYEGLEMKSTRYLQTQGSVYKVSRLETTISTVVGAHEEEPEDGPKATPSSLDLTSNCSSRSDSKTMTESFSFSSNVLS
UniProt P29371, whole entry: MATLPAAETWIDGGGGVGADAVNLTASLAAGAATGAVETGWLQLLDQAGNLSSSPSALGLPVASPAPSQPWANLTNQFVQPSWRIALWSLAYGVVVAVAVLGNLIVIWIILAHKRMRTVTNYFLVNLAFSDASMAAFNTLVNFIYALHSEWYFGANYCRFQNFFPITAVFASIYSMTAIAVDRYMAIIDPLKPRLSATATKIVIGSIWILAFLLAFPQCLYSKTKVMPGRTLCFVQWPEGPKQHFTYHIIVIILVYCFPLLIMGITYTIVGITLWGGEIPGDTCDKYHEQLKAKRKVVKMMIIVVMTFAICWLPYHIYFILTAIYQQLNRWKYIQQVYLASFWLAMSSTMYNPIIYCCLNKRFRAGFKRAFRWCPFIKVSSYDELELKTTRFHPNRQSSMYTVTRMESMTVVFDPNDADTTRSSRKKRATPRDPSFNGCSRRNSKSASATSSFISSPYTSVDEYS
UniProt P21452, whole entry: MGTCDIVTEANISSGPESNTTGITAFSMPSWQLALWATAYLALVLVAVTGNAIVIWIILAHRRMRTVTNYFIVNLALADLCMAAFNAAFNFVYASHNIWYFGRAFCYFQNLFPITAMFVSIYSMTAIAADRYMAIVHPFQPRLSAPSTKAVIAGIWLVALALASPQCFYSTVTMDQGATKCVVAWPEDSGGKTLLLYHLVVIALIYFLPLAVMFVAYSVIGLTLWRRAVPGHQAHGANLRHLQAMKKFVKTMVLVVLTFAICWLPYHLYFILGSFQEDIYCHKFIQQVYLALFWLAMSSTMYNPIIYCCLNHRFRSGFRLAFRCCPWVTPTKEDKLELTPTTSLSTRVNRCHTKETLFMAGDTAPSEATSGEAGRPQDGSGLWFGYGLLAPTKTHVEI

Columns and labels:
Assay type in all cases: cell-based
[1] = target: NK1 (Homo sapiens, UniProt P25103); experiment: Signal transduction (ST), intracellular Ca++ (FLIPR), NK1 antagonism
[2] = target: NK3 (Homo sapiens, UniProt P29371); experiment: Signal transduction (ST), intracellular Ca++ (FLIPR), NK3
[3] = target: NK2 (Homo sapiens, UniProt P21452); experiment: Signal transduction (ST), intracellular Ca++ (FLIPR), NK2

Structure (SMILES) | pIC50 NK1 [1] | pIC50 NK3 [2] | pIC50 NK2 [3]
O=C(C1CC1)N1CCCC(N2CCN(C3CCN(C(=O)c4cc(C(F)(F)F)cc(C(F)(F)F)c4)C(Cc4ccccc4)C3)CC2)C1 (centres unmarked) | 8.5 | 6.1 | –
O=C(c1cc(C(F)(F)F)cc(C(F)(F)F)c1)N1CC[C@H](N2CCN(C3CCCN(S(=O)(=O)c4ccccc4O)C3)CC2)C[C@H]1Cc1ccccc1 (some centres unmarked) | 7.7 | 5.8 | 5.6
O=C(C1CC1)N1CCCC(N2CCN([C@H]3CCN(C(=O)c4cc(C(F)(F)F)cc(C(F)(F)F)c4)[C@H](Cc4ccccc4)C3)CC2)C1 (single isomer, unassigned) | 8.4 | 6.3 | 5.5
O=C(c1cc(C(F)(F)F)cc(C(F)(F)F)c1)N1CCC(N2CCN(C3CCCN(S(=O)(=O)c4cccs4)C3)CC2)CC1Cc1ccccc1 (centres unmarked) [Compound 59] | 8.0 | 7.0 | 6.1
